# Reference: patent publication US20260382635A1, “NITROSYL-HEME FORMULATIONS FOR THE TREATMENT OF CARDIOVASCULAR CONDITIONS, HEMOLYSIS, AND THE STABILIZATION OF CELL-FREE HEME MOLECULES” (published 2026)
# Key:
# [1] = NO-ferroheme formation kinetics in red blood cell membrane ghosts (UV-Vis); conditions: 250 μM thiol or sulfide; 25 μM heme, 100 μM NO, red cell ghosts; scanning every minute
# Experimental: Red cells were separated from the whole blood by sedimentation via centrifugation at 1000 g for 10 minutes. These packed red cells were then hemolyzed using 5 mM phosphate buffer, pH 8 (4.674 mM Na2HPO4+0.326 mM NaH2PO4) in the volume ratio of 1:40 for an hour. The mixture was spun at 35,000 g for 30 minutes at 20 °C and washed with the buffer repeatedly until the white ghosts were produced. The absence of hemoglobin was confirmed by taking the absorption of the ghosts in the range of 300-700 nm. Differential interface contrast microscopy images of the ghost membranes were taken via a Zeiss Axio Observer D1 Microscope. Images were collected and processed using ImageJ (1.44p).
# Heme is hydrophobic and can be solubilized in organic solvents like methanol. […] The use of RBC membrane ghosts enabled characterization of the NO-ferroheme product by low temperature electron paramagnetic resonance (EPR) spectroscopy. Both reactions (in the presence and absence GSH) give rise to a rhombic EPR spectrum characteristic of a five-coordinate NO-ferroheme species with g-values at 2.081, 2.054, and 2.012 for gmax, gmid, and gmin, respectively, and a three-line hyperfine splitting centered on gmin (^NOA=47 MHz, FIG. 2D).^45,46
# 25 μM heme and 100 μM NO were reacted in the red cell ghost system under anoxic conditions at room temperature in the absence of any thiol species. […]
# rodents = conditions: concentrations less than 300 μM; cited from earlier work
# mice = test: Changes in murine mean arterial pressure (MAP); conditions: 7.5 nM-7.5 μM; except highest dose of dissolved NO (7.5 μM)
# Experimental: A total of 70 male C57BL/6J mice (the Jackson Laboratory), aged between 12 to 14 weeks, were anesthetized by isoflurane (2.5%) for all experiments. Mice were in rooms maintaining 12/12 h light/dark cycles at 20-26 °C and 30-70% relative humidity. 10 of these total mice were used to establish the parameters of the model. Body temperature was maintained at 37 °C by a heating pad connected to heat pump (Androit). Catheters were implanted for carotid artery and jugular vein. Arterial blood pressure was continuously recorded through a blood pressure transducer (MLT699, ADInstrument) connected to an 8-channel Powerlab (ADInstrument). A tracheal tube was introduced and connected to a rodent ventilator (Model 849, MidiVent). Upon completion, in some animals, the fraction of inspiratory O2 was decreased from 21% to 10% to induce hypoxia. 75 μL of L-NAME was administered intravenously in a bolus at a dose of 10 mg/kg bodyweight. Ten minutes after L-NAME injection, animals were injected with 50 μL of NO-ferroheme, normal saline (NS), NO control, or freshly prepared GSNO^77 control for 4 times at 10-minute intervals. An NO-ferroheme in albumin stock was prepared via a concentrated version of the direct method as described above: 300 μM ferric heme was mixed anaerobically on a Schlenk line with 3 mM GSH and 600 μM NO in 500 μM albumin using air-tight Hamilton syringes. NO controls were generated similarly and comprised 300 μM dissolved NO with 3 mM GSH in anaerobic albumin solution. Likewise, GSNO stocks comprised 300 μM GSNO with 3 mM GSH in anaerobic albumin solution. Each of these stocks (NO-ferroheme, NO control, or GSNO control) were handled identically and diluted further in air with 500 μM albumin solution before injection by 1000-, 100-, and 10-fold. Mean arterial pressure (MAP) values were obtained by processed the recorded arterial pressure data with LabChart 7.3.8 (ADInstruments). To quantify changes ΔMAPmax was determined, defined as the average MAP before an injection (average of 3 to 5 time points) subtracted from the maximum change within 3 minutes after injection (average of 3-5 time points) for each species at a given concentration.
# Using male C57BL/6J mice, catheters were inserted into the right carotid artery and jugular vein for monitoring MAP and for dose injections, respectively. Fresh NO-ferroheme stock solutions were generated in an anaerobic environment by mixing 300 μM hemin, 3 mM glutathione, 600 μM NO, and 500 μM bovine serum albumin in PBS. To establish that vasodilation was independent of endogenous eNOS-derived NO, mice were first treated with the NOS inhibitor L-NG-nitroarginine methyl ester (L-NAME). Four doses of NO-ferroheme were administered at estimated blood concentrations of 7.5 nM, 75 nM, 0.75 μM, and 7.5 μM. Doses were injected intravenously every ten minutes, long enough for the blood pressure to stabilize.
# Injections of NO-ferroheme solution in hypoxic animals were characterized by a rapid, transient relaxation, as monitored by changes in MAP. The MAP almost completely returned to the L-NAME induced baseline after ten minutes when compared to normal saline controls (FIG. 5A). […] These changes were also significant versus normal saline at 75 nM under normoxic conditions (p=0.0002), 0.75 μM and 7.5 μM (p<0.0001, FIG. 5D, open squares vs circles).
# This synthesis can involve multiple potential vasodilators including NO itself, GSNO, and NO-ferroheme. Therefore, it was desirable to define the dominant vasodilating species. The vasodilation potency of NO and GSNO was compared. Fresh stocks of NO were made (300 μM NO, 3 mM glutathione, and 500 μM albumin) and mice were injected in 10-minute intervals at the same dosing as the NO-ferroheme albumin injections (7.5 nM, 75 nM, 0.75 μM, and 7.5 μM dissolved NO) under 10% hypoxia and normoxia (FIGS. 5A and 5B, hashed traces). […]
# sGC = test: Cyclic GMP ELISA in platelet-rich plasma; conditions: 1 μM ODQ, with and without tadalafil
# Experimental: 96-well Cyclic GMP ELISA kits were purchased from Cayman Chemical. Fresh platelet-rich plasma (PRP) was collected from different healthy donors by centrifugation of the blood samples at 300 g for 5 minutes. PRP was diluted 1:7 using the mixture of NO-ferroheme at concentrations described above, 1 μM ODQ (Cayman Chemical), 10 nM PDE inhibitor (Tadalafil, Cayman Chemical), or 2 μM NO. The final 500 μL volumes were adjusted with argon-degassed buffer. Samples with ODQ were incubated with platelets for 10 minutes at room temperature prior to any further additions. All samples were incubated in a 37 °C water bath for 15 minutes and then fixed using a 1:4 dilution of ice-cold 99.5% ethanol. The supernatants were collected after centrifuging at 1,500 g for 10 minutes followed by hours of incubation for the evaporation of ethanol. ELISA buffer (500 μL) was then added to the ethanol-free samples and used in the ELISA 96-well plate for triplicate readings. The non-acetylated approach was performed following the manufacturer's instructions. The plate was analyzed at 412 nm wavelength at room temperature by a Molecular Devices SpectraMax 340 PC microplate reader. SoftMax Pro (v4.8) was used to collect and analyze ELISA data. […]
# [2] = Chemiluminescent quantification of NO from NO-ferroheme and GSNO in MeOH:PBS buffer
# Experimental: A Zysense Nitric Oxide Analyzer 280i or an ECO PHYSICS nCLD 88 liquid NO system was used to detect NO congeners, with data from the former recorded using SIEVERS Windows 95/98/NT (v3.21 PNN) and the latter using eDAQ Chart (v5.5.27). Measurements of nitrosothiols was made using Cu/Cys assay (2C assay) or tri-iodide assay.^40 NO-ferroheme was measured by injecting an amount each sample into the NOA purge vessel containing 50 mM potassium [COMPOUND LEFT OUT] in PBS at 25 or 37 °C. See following Examples for specific amounts. Samples were protected from light by aluminum foil.
# The identity and stoichiometry of the reaction products support a mechanism involving thiol-catalyzed reductive nitrosylation of ferric heme to form NO-ferroheme and a thiyl radical, which subsequently reacts with excess NO to form secondary S-nitrosoglutathione (GSNO). These species, NO-ferroheme and GSNO, were identified and quantified by reductive chemiluminescence with NO detection in the chemiluminescent nitric oxide analyzer (FIG. 1G, Untreated bars). […]
smiles,measurement,setting,value
N[C@@H](CS)C(=O)NCC(=O)O,NO-ferroheme reaction completion,[1],completes the NO-ferroheme reaction within the first scan
N[C@@H](CCC(=O)N[C@@H](CSN=O)C(=O)NCC(=O)O)C(=O)O,effect on MAP,rodents,does not significantly affect MAP
same,"change in MAP vs normal saline, words",mice,no significant changes in MAP
O=c1onc2cnc3ccccc3n12,effect of ODQ on NO-ferroheme cGMP response,sGC,ablated NO-ferroheme response
CC1(C)CCC=[N+]1[O-],effect of DMPO on formation of GSNO,[2],completely abrogated the formation of GSNO
